Source: patent US5892063A (Hauser, Inc., priority 1997, dated 1999)

System: NCI-H322M
Experiment: cells
Conditions: Homo sapiens, 48 h

For `CC(=O)O[C@H]1C(=O)[C@@]2(C)[C@H]([C@H](OC(=O)c3ccccc3)[C@]3(O)C[C@H](OC(=O)[C@H](O)[C@@H](NC(=O)C4(C)OC4C)c4ccccc4)C(C)=C1C3(C)C)[C@]1(OC(C)=O)CO[C@@H]1C[C@@H]2O` (some centres unmarked) [Ceph-epoxide, cephalomannine epoxide], the GI50 (read-out: Log10 GI50 (converted)) was 24 nM.

With `CC(=O)O[C@H]1C(=O)[C@@]2(C)[C@H]([C@H](OC(=O)c3ccccc3)[C@]3(O)C[C@H](OC(=O)[C@H](O)[C@@H](NC(=O)c4ccccc4)c4ccccc4)C(C)=C1C3(C)C)[C@]1(OC(C)=O)CO[C@@H]1C[C@@H]2O` [Paclitaxel, paclitaxel, reference compound] the CC50 (read-out: Log10 LC50 (converted)) was over 100000 nM.
